Where “and” joins values, the source holds several entries; their conditions need not be identical. Identical values can stand only once. Only a part is listed here, and it is no random draw. Calls of active or inactive are those of the source. No stated cut-off is given here; in the data, active means inhibition above about 50% (passing the limit was not always enough); inconclusive means no clear call, values can overlap the other calls.
Molecular target: SUMO-conjugating enzyme UBC9 (Homo sapiens) (UniProt P63279)
Experiment: inhibitors of in vitro SUMOylation cascade, primary screen, biochemical, HTRF, uHTS (AID 2006)
Settings: HTRF SUMOylation assay, SAE1/SAE2 + UBC9, in vitro; at 35 µM; active compounds read high

Sequences of proteins named here, by UniProt entry; tags and fusion partners are left off.
UniProt P63279, whole entry, looked up: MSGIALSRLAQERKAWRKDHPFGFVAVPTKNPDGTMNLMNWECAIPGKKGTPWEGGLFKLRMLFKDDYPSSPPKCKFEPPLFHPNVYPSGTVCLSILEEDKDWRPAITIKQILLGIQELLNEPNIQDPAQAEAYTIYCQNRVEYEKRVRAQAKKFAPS

Structure (SMILES) | inhibition
O=C(Nc1cc([As](=O)(O)O)ccc1O)c1ccccc1 | inactive: 12.4%
O=[N+]([O-])c1ncn(CCn2ncnc2[N+](=O)[O-])n1 | inactive: 4.4%
CC(C)(C)C(=O)NC(Sc1ccncn1)C(Cl)(Cl)Cl (stereo unspecified) | inactive: 18.6%
O=C(O)CNc1ccc([As](=O)(O)O)cc1 | inactive: 14.8%
O=[N+]([O-])c1cccc(NC2=NCC(CBr)S2)c1 (stereo unspecified) | inactive: 1%
COc1ccc(C2=NCC(CBr)S2)cc1 (stereo unspecified) | inactive: 5.1%
Cc1ccc(NP(=O)(Oc2ccccc2)Oc2ccccc2)nc1 | inactive: 26.3%
CCc1nc2c(n1)c1c(non1O)c1c2no[n+]1[O-] | inactive: 31.4%
O=[N+]([O-])c1cc([N+](=O)[O-])c(CCNc2ccccc2)c([N+](=O)[O-])c1 | inactive: 17.4%
O=[N+]([O-])c1cccc2n[nH]nc12 | inactive: 8.1%
CC(=O)N1C2C3N(C(C)=O)C1C1N(C(C)=O)C(C(N1C(C)=O)N3C(C)=O)N2C(C)=O | inactive: 28.5%
CCN(/C(=N/P(=O)(N1CCOCC1)N1CCOCC1)N1CCOCC1)c1ccc(OC)cc1 | inactive: -8.7%
Nc1ccc([As](=O)(O)c2ccc(N)cc2)cc1 | inactive: -3.8%
C[N+]1=C2C=CC=CC=C2SC12C([N+](=O)[O-])=CC([N+](=O)[O-])=C[C-]2[N+](=O)[O-] (stereo unspecified) | active: 61.1%
CC1CCN(C(=O)Oc2c(Cl)cc(Cl)c3cccnc23)CC1 | inactive: -8.8%
CC(C)=N/N=C(\N)N[N+](=O)[O-] | inactive: 2.2%
CN(C)C(=O)OCCc1n(C)cc[n+]1C | inactive: -8.4%
Cc1ccc(N/C(=N/P(=O)(N2CCOCC2)N2CCOCC2)N2CCOCC2)cc1 | inactive: 6.6%
NC(=O)c1cc([N+](=O)[O-])cc([N+](=O)[O-])c1N | inactive: -0.1%
Clc1ccc(Cl)c(NC2=NCC(CBr)S2)c1 (stereo unspecified) | inactive: -19.2%
CN1CCCC(OC(=O)C(c2ccccc2)c2ccccc2)C1 (stereo unspecified) | inactive: 17.6%
COc1ccccc1OP(=O)(Nc1ccc(C)cn1)Oc1ccccc1OC | inactive: 3.2%
Cc1ccc(OP(=O)(Nc2nccs2)Oc2ccc(C)cc2)cc1 | inactive: 13.8%
Oc1ccccc1CNc1ccccn1 | inactive: -12.6%

Structure (SMILES) | inhibition
Cc1c2non([O-])c-2c(C)[n+](=O)[n+]1[O-] | inactive: 13.5%
O=C(NC(Sc1ccncn1)C(Cl)(Cl)Cl)c1ccccc1 (stereo unspecified) | inactive: 3%
CC(C)CC(=O)NC(Sc1ccc(Cl)cc1)C(Cl)(Cl)Cl (stereo unspecified) | inactive: 9.4%
Nc1cc(N)c2nonc2c1[N+](=O)[O-] | inactive: 22%
O=P(Nc1nc2ccc(Cl)cc2s1)(c1ccccc1)c1ccccc1 | inactive: -1.7%
O=C(O)c1ccccc1[As](=O)(O)O | inactive: 16.2%
CC(=O)Nc1ccc([As](=O)(O)O)cc1 | inactive: 22%
CCOP(=O)(Nc1ccccc1)OCC | inactive: 19.8% and inactive: 8.7%
Cc1cc(SC(NC(=O)c2ccc(F)cc2)C(Cl)(Cl)Cl)ncn1 (stereo unspecified) | inactive: 7.8%
Cc1ccc(NP(=O)(Oc2ccccc2F)Oc2ccccc2F)nc1 | inactive: 11.2%
O=[N+]([O-])c1cc([N+](=O)[O-])c(CCN2CCOCC2)c([N+](=O)[O-])c1 | inactive: 23.5%
CCN(N=Nc1nonc1N)c1nonc1N | inactive: 4.2%
c1ccc(-c2nn[nH]n2)c(-c2nn[nH]n2)c1 | inactive: -15.4%
Cc1ccc(NP(=O)(Oc2cccc(C)c2)Oc2cccc(C)c2)nc1 | inactive: 17.6%
CCOC(=O)NC(Sc1ccccc1)C(Cl)(Cl)Cl (stereo unspecified) | inactive: -2.1%
CCNC(=S)/N=C(\N)N[N+](=O)[O-] | inactive: 6.4%
O=C(NC1CCS(=O)(=O)C1)NP(=S)(Oc1ccccc1)Oc1ccccc1 (stereo unspecified) | inactive: 13.2%
O=C(OC1CN2CCC1CC2)c1ccccc1 (stereo unspecified) | inactive: -1%
CCC(=O)N1C2C3N(C(=O)CC)C1C1N(C(=O)CC)C(C(N1C(=O)CC)N3C(=O)CC)N2C(=O)CC | inactive: 25.3%
COC(=O)c1cc2c(s1)N=C(c1ccccc1)N(C)P2(=O)N1CCOCC1 (stereo unspecified) | inactive: 22.3%
CC(=O)NC(SC(=S)N(CC(C)C)CC(C)C)C(Cl)(Cl)Cl (stereo unspecified) | inactive: -0.8%
Cc1ccc(OP(=O)(Nc2ccccn2)Oc2ccc(C)cc2)cc1 | inactive: -23.3%
Cc1ccccc1OP(=O)(Nc1ccccn1)Oc1ccccc1C | inactive: 7.1%
CN(C)C(=O)Oc1noc2ccccc12 | inactive: 4.8%

Structure (SMILES) | inhibition
O=c1c2cc([N+](=O)[O-])ccc2[nH]c2c([N+](=O)[O-])cc([N+](=O)[O-])cc12 | inactive: 13.3%
O=P1(Nc2nc3ccc(Cl)cc3s2)COc2ccccc2O1 (stereo unspecified) | inactive: 22%
CCOc1ccc(C2=NCC(CBr)S2)cc1 (stereo unspecified) | inactive: 11.7%
CC(C)(C)C(=O)NC(Sc1ccccc1)C(Cl)(Cl)Cl (stereo unspecified) | inactive: 2.9%
C[C@@H]1C=CCP(=O)(Oc2ccccc2)O1 (stereo partly specified) | inactive: 11.9%
C[C@H]1OP(=O)(Oc2ccccc2)C[C@@H]2O[C@@H]21 (stereo partly specified) | inactive: -2.9%
CC(=O)c1ccc(N2CC2c2ccncc2)cc1 (stereo unspecified) | inactive: -4.3%
CC(=O)Nc1ccc([As](=O)(O)O)c(O)c1 | inactive: 26.6%
CC(=O)Nc1ccc(Oc2c([N+](=O)[O-])cc([N+](=O)[O-])cc2[N+](=O)[O-])cc1 | inactive: 2%
CC(C)C(=O)NC(Sc1ccccc1)C(Cl)(Cl)Cl (stereo unspecified) | inactive: 9.5%
O=P(Nc1nccs1)(c1ccccc1)c1ccccc1 | inactive: 10.3%
c1nnnn1CCn1cnnn1 | inactive: 6.7%
O=P(Nc1ccccn1)(c1ccc(Br)cc1)c1ccc(Br)cc1 | inactive: 10.7%
CN(C)C1(CNC(=O)c2ccc(Cl)c(S(N)(=O)=O)c2)CCCCC1 | inactive: -9.8%
O=P(Nc1nc2ccccc2s1)(c1ccccc1)c1ccccc1 | inactive: 23.4%
C[C@H]1OP(=O)(Oc2ccccc2)[C@H](O)[C@H](O)[C@H]1N=[N+]=[N-] (stereo partly specified) | inactive: -4.1%
O=[As](O)(c1ccccc1)c1ccc(O)cc1 | inactive: 22.5%
O=[N+]([O-])c1ccc(O)c(/C=N/Nc2ccc([N+](=O)[O-])cc2[N+](=O)[O-])c1 | inactive: 10.8%
CC(=O)NC(SC(=S)N(C)C)C(Cl)(Cl)Cl (stereo unspecified) | inactive: -5.4%
O=[N+]([O-])c1ncn(CCn2cnc([N+](=O)[O-])n2)n1 | inactive: 7.1%
O=C(OC1CN2CCC1CC2)c1cccc(Cl)c1 (stereo unspecified) | inactive: -2.9%
Nc1ccc([As](=O)(O)c2ccc([N+](=O)[O-])cc2)cc1 | inactive: 22.3%
C(Cc1nn[nH]n1)Cc1nn[nH]n1 | inactive: 6.8%

— PubChem BioAssay AID2006 (Sanford-Burnham Center for Chemical Genomics, 2009)
